US5391751A, “2,2-dimethylchromene derivatives, process for their preparation and pharmaceutical compositions in which they are present” (priority 1987, dated 1995)

Tested on: mice
Assay type: in vivo
Details: oral administration

For `CC1(C)Oc2ccc(C#N)cc2[C@@H](N2CCCC2=O)[C@@H]1O` (relative stereo) [Product A, trans-6-cyano-4-(2-oxopyrrolidin-1-yl)-2,2-dimethyl-chroman-3-ol, reference compound], the LD0 was 500 mg/kg.
